The record followed here is patent EP4837900A1, “AROMATIC HYDRAZIDE DERIVATIVE AND MEDICAL USE THEREOF” (dated 2026).

Series [1] relates to colorectal cancer SW480 cells. As to the kind of experiment: Inhibitory activity test on proliferation of colorectal cancer SW480 cells (CellTiter-3D-Glo). Conditions: low-attachment 96-well U-bottom plate. Here is the method: Cell proliferation viability was detected by a CellTiter-3D-Glo reagent assay. An experimental procedure was as follows: SW480 cells in a logarithmic growth phase were digested, diluted to a suitable cell density with DMEM complete medium containing 10% FBS and 1% PS, seeded into a low-attachment 96-well U-bottom plate, and cultured in 5% CO2; and then test compounds at a series of gradient concentrations were added, and the plate was incubated in a 5% CO2 incubator. After finishing the incubation, the cells were lysed and detected by using the CellTiter-3D-Glo reagent. Chemiluminescence values were measured by a microplate reader, and data were fitted by Graphpad Prism software, so as to calculate IC50 values of tested substances.

Series [2] concerns lung cancer NCI-H358 cells. The series can be described thus: Inhibitory activity test on proliferation of lung cancer NCI-H358 cells (CellTiter-3D-Glo). Conditions: low-attachment 96-well U-bottom plate. Here is the method: Cell proliferation viability was detected by a CellTiter-3D-Glo reagent assay. An experimental procedure was as follows: NCI-H358 cells in a logarithmic growth phase were digested and seeded into a low-attachment 96-well U-bottom plate at an appropriate density, and cultured in a cell culture incubator; and media containing test compounds at a series of gradient concentrations were added to experimental wells, while a control medium was added to a control well, and the plate was incubated in a 5% CO2 incubator. After finishing the incubation, the CellTiter-3D-Glo reagent was added to each well for lysis and detection; and chemiluminescence values were measured by a microplate reader. Data were fitted by Graphpad Prism software, so as to calculate IC50 values of tested substances.

In series [3] the test system is colorectal cancer SW480 cells. As to the kind of experiment: Pharmacodynamic experiment, subcutaneous xenograft tumor model of colorectal cancer SW480 cells. Particulars: BALB/c nude mice, 0.2 mg/kg, oral gavage, QD × 24 days. Here is the method: (§1) Animal species and number: BALB/c nude mice, 6 mice in each group.
Experimental groups: blank solvent control group, compound 3-9 (0.2 mg/kg, QD × 24 days) and compound 4-1 (0.2 mg/kg, QD × 24 days).
Establishment of animal model: SW480 tumor cells in a logarithmic growth phase were cultured in vitro and harvested, and subcutaneously inoculated into the right dorsal side of the Balb/c Nude mice, and when tumors grew to about 180-250 mm^3, the tumor-bearing mice were randomly divided into groups. Subsequently, each group of animals were administered with the test compounds, and the first day of drug administration was defined as Day 1 of the experiment.
Drug administration route and frequency: oral gavage, once per day, for 24 consecutive days.
General state observation: the mice were observed once per day, and observation contents comprised, but were not limited to, local areas of administration, physical signs, general behaviors, mental states, death and other situations, and other abnormal manifestations of the animals.
Tumor volume calculation: V = 0.5 a × b^2, wherein a was a long diameter of tumor and b was a short diameter of tumor. Tumor growth inhibition rates TGI (%) were used to evaluate anti-tumor effects of the compounds. TGI (%) = [1 - (mean tumor volume of the treatment group at the end of drug administration - mean tumor volume of the treatment group at the start of drug administration) / (mean tumor volume of the control group at the end of drug administration - mean tumor volume of the control group at the start of drug administration)] × 100%.

Series [4] relates to pancreatic cancer ASPC-1 cells. As to the kind of experiment: Pharmacodynamic experiment, subcutaneous xenograft tumor model of pancreatic cancer ASPC-1 cells. Particulars: ASPC-1 xenograft, BALB/c nude mice, 0.2 mg/kg, oral gavage, QD × 21 days. Here is the method:
as §1
Experimental groups: blank solvent control group and compound 4-1 (0.2 mg/kg, QD × 21 days).
Establishment of animal model: pancreatic cancer ASPC-1 cells in a logarithmic growth phase were cultured in vitro and harvested, and subcutaneously inoculated into the right dorsal side of the Balb/c Nude mice, when tumors grew to about 200-300 mm^3, the tumor-bearing mice were randomly divided into groups based on tumor volume, and subsequently the animals in each group were administered with the test compound, wherein the first day of administration was defined as Day 1 of the experiment.
Drug administration route and frequency: oral gavage, once per day, for 21 consecutive days.
General state observation: observation time and frequency: once daily; observation indicators or contents: comprised, but were not limited to, local areas of administration, physical signs, general behaviors, mental states, death and other situations, and other abnormal manifestations of the animals.
Tumor volume calculation: V = 0.5 a × b^2, wherein a was a long diameter of tumor and b was a short diameter of tumor. A tumor growth inhibition rate TGI (%) was used to evaluate an anti-tumor effect of the compound. […]

Series [5] is described as follows: Solubility test in hydrochloric acid solution at pH 1.2 (HPLC). Conditions: hydrochloric acid solution at pH 1.2, 37°C water bath. Here is the method:
Test procedure: 5 mL of hydrochloric acid solution at pH 1.2 was added into a 25 mL stoppered colorimetric tube, then compound 4-1 was added, the mixture was stirred in a 37°C water bath and filtered through a polyethersulfone membrane, and a concentration of the filtrate was determined by HPLC.

Regarding `C#CCNNC(=O)c1cc(Cc2ccnc(NS(=O)(=O)NC)c2F)c(F)c(F)c1Nc1ccc(I)cc1F`, in series [1], the IC50 (commonly the concentration that inhibits the measured activity by half) is 0.08 nM.
Same read-out and setting: the value for `[2H]C([2H])(C=C)NNC(=O)c1cc(Cc2ccnc(NS(=O)(=O)NC)c2F)c(F)c(F)c1Nc1ccc(I)cc1F` was 0.03 nM.
Same read-out and setting: the value for `CNS(=O)(=O)Nc1nccc(Cc2cc(C(=O)NOC)c(Nc3ccc(I)cc3F)c(F)c2F)c1F` was 0.24 nM.
As to `CNC(=O)c1cc(Cc2ccnc(NS(=O)(=O)NC)c2F)c(F)c(F)c1Nc1ccc(I)cc1F`, the IC50 in series [2] was found to be 2.1 nM.
`[2H]C([2H])([2H])NS(=O)(=O)Nc1nccc(Cc2cc(C(=O)NNCC=C)c(Nc3ccc(I)cc3F)c(F)c2F)c1F`: the IC50 in series [2] amounted to 0.13 nM; in series [1] it was 0.04 nM.
In series [1], `CNS(=O)(=O)Nc1nccc(Cc2cc(C(=O)NNCCO)c(Nc3ccc(I)cc3F)c(F)c2F)c1F` displayed an IC50 of 0.08 nM.
`CNS(=O)(=O)Nc1nccc(Cc2cc(C(=O)NN)c(Nc3ccc(I)cc3F)c(F)c2F)c1F` displayed an IC50 in series [2] of 0.15 nM. For the same compound, in series [3], the “General state of the animals during the drug administration period (diet, body weight, activity)” value (“General state” for short) is “normal diet, body weight and activity”; the Tumor inhibition rate result is given as “+++ (tumor inhibition rate > 90%)”. The compound also yielded an IC50 in series [1] of 0.05 nM.
For the compound `C=CCNNC(=O)c1cc(Cc2ccnc(NS(=O)(=O)NC)c2F)c(F)c(F)c1Nc1ccc(I)cc1F`, in series [4], the “General state” value is “normal diet, body weight and activity”; the “TGI (%)” value is reported as “+++ (tumor inhibition rate > 100%)”. Besides, the IC50 in series [2] came to 0.12 nM. Besides, in series [3], the “General state” value is “normal diet, body weight and activity”; the Tumor inhibition rate entry is reported as “+++ (tumor inhibition rate > 90%)”. The compound further came in with an IC50 in series [1] of 0.03 nM. The Solubility result in series [5] is given as “+++ (solubility > 30 µg/mL)”.
